Binding of CDR-mutated scFvs to a peptide of the spike HR2 region

Target peptide (SARS-CoV-2 spike, HR2 region): PDVDLGDISGINAS

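Phage display of a naive human antibody library on the peptide gave the parent. These sequences belong to a second round, designed from the earlier measurements on random variants of the parent. Group labels follow the data file (En: ensemble of fine-tuned language models; HC: hill climbing; Gen: genetic algorithm; Gibbs: Gibbs sampling; a sequence that several methods proposed may carry one label only). Affinity was read by AlphaSeq, a pooled yeast mating assay with surface-displayed partners. After mating in shaken culture at 30 °C for 16 h, diploids were selected and their barcode pairs sequenced. Read counts were normalised to the haploid input and turned into Kd by a linear fit to BCL2-family pairs of known affinity, for each replicate. Each pool was mated in six replicate cultures.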

Parent scFv Ab-14: VH joined to VL by three GGGGS repeats. Changes lie in the heavy chain CDRs alone.
VH: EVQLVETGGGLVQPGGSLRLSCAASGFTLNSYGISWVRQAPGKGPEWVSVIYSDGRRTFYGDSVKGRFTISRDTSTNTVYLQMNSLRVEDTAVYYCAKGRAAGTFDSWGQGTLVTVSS
VL: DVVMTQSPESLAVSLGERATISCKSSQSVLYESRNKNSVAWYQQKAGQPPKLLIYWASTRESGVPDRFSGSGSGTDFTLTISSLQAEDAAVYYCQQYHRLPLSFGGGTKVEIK

The parent's heavy chain CDRs are GFTLNSYGIS, VIYSDGRRTFYGDSVK, GRAAGTFDS; each variant's own CDRs replace them letter for letter.
This list holds designs with more than six substitutions.
Values are apparent Kd, the geometric mean of the replicates that gave a signal; lower means stronger binding.
"no signal" means that the variant was in the library but no mating with the target was seen in any replicate; the authors take this as a sign of poor binding, and no number exists.
The authors averaged sequences with at least three values out of six and counted those with two or fewer as poor binders.

Variant GQDLQEYGVS / VIYADGKRTAYADSVK / GKSLGLIFV [En_Gibbs] gave no signal (0 of 6 replicates). For GFDLNEYGIS / VIYADGQRTAYADSVK / GETAGTFDT [En_Gen], the assay gave 490 pM (6 of 6 replicates). Variant GFDLNEYGIS / VIYADGRRYHYQDSVK / GNVVGSVLY [En_Gibbs] showed no signal (0 of 6 replicates). With GKDLNEQGIS / VIYADGTRTAYANTVK / GEIAGTFPL [En_Gibbs] the result was no signal (0 of 6 replicates). With GFDLNDYGIS / VIYADGRRTFYADSVK / GEHAGTFDI [En_HC] the result was no signal (0 of 6 replicates). For GFDLNEYGIS / VIYADGKRTVYADSVK / GNVAGTFDQ [En_Gen], the assay gave 12 nM (6 of 6 replicates).

With GFDLDKYGIS / VIYADGRRKAYQNQFK / GGQTGTFDI [En_Gibbs] the result was no signal (0 of 6 replicates). For GKALDEYGIS / VIYADGKRTFYSNTVK / GQDGFFYDQ [En_Gibbs], the assay gave 1.9 µM (2 of 6 replicates). Variant GFDLNEYGIS / VIYADGMRTAYAEDVK / GENAGTFDV [En_Gen] gave 2.4 nM (6 of 6 replicates). For GFDLNEYGIS / VIYADGKRTSYADDVK / GNVAGTFDV [En_Gen], the assay gave 490 pM (6 of 6 replicates). For GFDLNEYGIS / VIYADGRRTFYADSVK / GNNAGTFLV [En_HC], the assay gave 9.7 nM (6 of 6 replicates). Variant GFDLNEYGIS / VIYADGRRTFYQDSVK / GEIAGTFDV [En_HC] showed 720 pM (6 of 6 replicates).

For GEDLEAYGIS / VIYADGVRTGYVNKVK / GDTGGMFDD [En_Gibbs], the assay gave no signal (0 of 6 replicates). Variant GFDINEYGIS / VIYADGRRTFYTDSVK / GGNAGTFDM [En_HC] showed 320 pM (6 of 6 replicates). With GFDLEEYGIS / VIYADGMRTQYINAVK / GIAGDIMDV [En_Gibbs] the result was no signal (0 of 6 replicates). With GFDLNEYGIS / VIYADGVRTSYADSVK / GNVAGTFDI [En_Gen] the result was 510 pM (6 of 6 replicates). With GFDLNEYGIS / VIYADGMRTAYVDDVK / GNVAGTFDT [En_Gen] the result was 300 pM (6 of 6 replicates). For GFDLDEYGIS / VIYADGQRTAYSDSVK / GENAGTFDQ [En_Gen], the assay gave 88 pM (6 of 6 replicates).

Variant GFDLDEYGIS / VIYADGQRTAYVDSVK / GENAGTFDV [En_Gen] gave 390 pM (6 of 6 replicates). Variant GFDLNEYGIS / VIYADGQRTFYADSVK / GKAAGTFDQ [En_HC] showed 360 pM (6 of 6 replicates). Variant GFDLNEYGIS / VIYADGVRTAYTDSVK / GEAAGTFDL [En_HC] showed 650 pM (6 of 6 replicates). For GFDLNEYGIS / VIYADGSRTAYADSVK / GNVAGTFDM [En_Gen], the assay gave 370 pM (6 of 6 replicates). For GFDLEEYGIS / VIYADGRRTFYSDSVK / GEIAGTFDV [En_HC], the assay gave 140 pM (3 of 6 replicates). Variant GYDLQDYGIS / VIYADGVRAFYHQSVK / GQLAGIFLL [En_Gibbs] gave no signal (0 of 6 replicates).

Variant GFNLNEYGIS / VIYADGQRTKYIDDVK / GTVRVLFMG [En_Gibbs] gave no signal (0 of 6 replicates). Variant GFDLNEYGIS / VIYADGMRTAYANSVK / GNNAGTFDV [En_Gen] showed 210 pM (6 of 6 replicates). Variant GFDLNEYGIS / VIYADGRRTAYIDSVK / GEVAGTFDM [En_HC] showed 110 pM (6 of 6 replicates). For GFDLEDYGIS / VIYADGRRTFYADSVK / GNVAGTFIQ [En_HC], the assay gave 570 pM (6 of 6 replicates). For GFSLGEYGIS / VIYADGMRSAYTDDVK / GAGANIITH [En_Gibbs], the assay gave 460 pM (6 of 6 replicates). Variant GFDLGEYGIS / VIYADGKRTAYVENVK / GTFGGTLLD [En_Gibbs] gave no signal (0 of 6 replicates).

For GFDLDEYGIS / VIYADGQRTAYADSVK / GQVAGTFDL [En_Gen], the assay gave 520 pM (6 of 6 replicates). For GFDLNEYGIS / VIYADGRRTFYTDSVK / GTQAGTFDV [En_HC], the assay gave 1.0 nM (5 of 6 replicates). Variant GKTLDEYGIS / VIYADGMRTQYIDQVK / GDIVGWNMT [En_Gibbs] gave no signal (0 of 6 replicates). Variant GFDLNEYGIS / VIYADGLRTAYVDDVK / GNVAGTFDV [En_Gen] gave 450 pM (6 of 6 replicates). With GKKLDEYGIS / VIYADGQRAAYTDDVK / GLQNNVQIV [En_Gibbs] the result was no signal (0 of 6 replicates). Variant GQHLDEYGIS / VIYADGMRKYYADNVK / GKSVGSIII [En_Gibbs] showed no signal (0 of 6 replicates).

Variant GFDIQEYGVS / VIYADGNRSQYSDNVK / GIIGDNVVI [En_Gibbs] gave no signal (0 of 6 replicates).

Values of this round are not directly comparable with the first-round values of the same sequences.
As a blank, each scFv also met three strains without target: over all heavy chain designs, 1% of these pairings were detected, typically at 120 nM and seldom below 7.0 nM.

From the AlphaSeq antibody data of Li et al. 2023 (doi:10.1038/s41467-023-39022-2), copy in the FLAb collection.